Laboratory results reported in PubChem BioAssay AID504339 (National Center for Advancing Translational Sciences (NCATS), 2011).
The list shows a part of the results, in another mix than the full data. Records with an inconclusive call do not appear. Calls of active or inactive are those of the source. Calls come from the whole dose curve; as a rule, active = well fitted inhibition curve with a large enough effect; inconclusive = small, poorly fitted or top-dose-only effect; inactive = no such curve, though single readings can be large or run the other way.

Amino acid sequences for entries named in this document (tags omitted). A change or cut given only in a name is not applied to a line headed by its entry.
UniProt O75164: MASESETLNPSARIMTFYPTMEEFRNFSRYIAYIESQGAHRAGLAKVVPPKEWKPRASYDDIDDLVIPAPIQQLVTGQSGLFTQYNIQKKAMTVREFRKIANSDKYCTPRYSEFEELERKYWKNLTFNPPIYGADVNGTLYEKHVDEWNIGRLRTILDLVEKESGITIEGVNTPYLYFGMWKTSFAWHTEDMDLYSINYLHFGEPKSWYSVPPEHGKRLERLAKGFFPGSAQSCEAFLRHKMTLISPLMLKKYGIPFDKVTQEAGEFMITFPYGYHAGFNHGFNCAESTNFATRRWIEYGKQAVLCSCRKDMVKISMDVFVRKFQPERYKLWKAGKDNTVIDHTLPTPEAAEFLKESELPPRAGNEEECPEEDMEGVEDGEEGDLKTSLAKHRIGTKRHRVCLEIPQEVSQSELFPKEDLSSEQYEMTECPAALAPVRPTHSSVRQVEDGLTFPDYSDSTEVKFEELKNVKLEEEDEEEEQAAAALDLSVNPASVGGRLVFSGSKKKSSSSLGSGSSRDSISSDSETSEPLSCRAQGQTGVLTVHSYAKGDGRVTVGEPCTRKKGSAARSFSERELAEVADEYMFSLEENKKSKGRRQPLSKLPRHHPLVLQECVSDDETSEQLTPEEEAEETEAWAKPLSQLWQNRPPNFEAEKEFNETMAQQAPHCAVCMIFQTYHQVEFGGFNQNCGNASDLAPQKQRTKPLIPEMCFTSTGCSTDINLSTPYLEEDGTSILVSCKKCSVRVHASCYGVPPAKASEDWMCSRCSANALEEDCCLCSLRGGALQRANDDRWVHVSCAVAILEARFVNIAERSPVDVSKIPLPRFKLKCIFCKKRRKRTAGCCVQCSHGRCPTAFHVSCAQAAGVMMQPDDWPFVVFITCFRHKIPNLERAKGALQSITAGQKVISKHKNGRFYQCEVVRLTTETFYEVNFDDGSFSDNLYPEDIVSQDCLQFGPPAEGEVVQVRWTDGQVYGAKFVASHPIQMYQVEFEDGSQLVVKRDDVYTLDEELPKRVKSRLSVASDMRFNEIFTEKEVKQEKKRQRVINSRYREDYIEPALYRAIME

biological target: Lysine-specific demethylase 4A (Homo sapiens) (UniProt O75164); assay: qHTS Assay for Inhibitors of JMJD2A-Tudor Domain; conditions: AlphaScreen JMJD2A-Tudor / H3K4me3 peptide binding; series mostly up to 114 µM; activity change, negative = inhibition: at the top concentration; note: nearly all actives have a fitted effect of over 50% in size
% is set by controls: 0 for no effect and ±100 for the full control effect; potency is the fitted concentration of half-maximal effect.

SMILES	activity change, negative = inhibition	Potency
O=P(Nc1nccs1)(c1ccccc1)c1ccccc1	inactive: -2.15%	
CC(C)C(=O)NC(Sc1ccccc1)C(Cl)(Cl)Cl (stereo not given)	inactive: 0%	
O=[N+]([O-])c1ncn(CCn2cnc([N+](=O)[O-])n2)n1	inactive: 2.21% [at 11.4 µM]	
O=[N+]([O-])c1ccc(O)c(/C=N/Nc2ccc([N+](=O)[O-])cc2[N+](=O)[O-])c1		active: 44.7 µM
O=[As](O)(c1ccccc1)c1ccc(O)cc1	inactive: -5.86%	
C(Cc1nn[nH]n1)Cc1nn[nH]n1		active: 39.8 µM
Nc1ccc([As](=O)(O)c2ccc([N+](=O)[O-])cc2)cc1	inactive: -7.59%	
O=C(OC1CN2CCC1CC2)c1cccc(Cl)c1 (stereo not given)	inactive: -8.89%	
CN(C)C1(CNC(=O)c2ccc(Cl)c(S(N)(=O)=O)c2)CCCCC1	inactive: 4.41%	
O=P(Nc1ccccn1)(c1ccc(Br)cc1)c1ccc(Br)cc1	inactive: -14.7%	
O=P(Nc1nc2ccccc2s1)(c1ccccc1)c1ccccc1	inactive: -23.4%	
C[C@H]1OP(=O)(Oc2ccccc2)[C@H](O)[C@H](O)[C@H]1N=[N+]=[N-] (stereo not given in full)	inactive: -6.47%	
COC(=O)c1cc2c(s1)N=C(c1ccccc1)N(C)P2(=O)N1CCOCC1 (stereo not given)	inactive: 12.3%	
Cc1ccc(OP(=O)(Nc2ccccn2)Oc2ccc(C)cc2)cc1	inactive: -18% [at 11.4 µM]	
CC(=O)NC(SC(=S)N(CC(C)C)CC(C)C)C(Cl)(Cl)Cl (stereo not given)	inactive: -9.93%	
O=C(OC1CN2CCC1CC2)c1ccccc1 (stereo not given)	inactive: -11.9%	
CCC(=O)N1C2C3N(C(=O)CC)C1C1N(C(=O)CC)C(C(N1C(=O)CC)N3C(=O)CC)N2C(=O)CC	inactive: 6.71%	
CC(NC(=O)COC(=O)C(O)(c1ccccc1)c1ccccc1)c1ccccc1 (stereo not given)	inactive: 1.95%	
Cc1ccccc1OP(=O)(Nc1ccccn1)Oc1ccccc1C	inactive: -8.33%	
CN(C)C(=O)Oc1noc2ccccc12	inactive: -6.9%	
O=C(NC1CCS(=O)(=O)C1)NP(=S)(Oc1ccccc1)Oc1ccccc1 (stereo not given)	inactive: -6.01% [at 11.4 µM]	
CCNC(=S)/N=C(\N)N[N+](=O)[O-]	inactive: -1.42%	
Cc1ccc(NP(=O)(Oc2cccc(C)c2)Oc2cccc(C)c2)nc1	inactive: 2.85%	
O=P1(N(CCCl)CCCl)OCCC2CCCCN21 (stereo not given)	inactive: 1.38%	
CC(=O)c1ccc(N2CC2c2ccncc2)cc1 (stereo not given)	inactive: -1.4%	

SMILES	activity change, negative = inhibition	Potency
COC(=O)C1(C)COP(=O)(NCc2ccccc2)OC1 (stereo not given)	inactive: -9.72%	
Cc1ccccc1CN(C)C(=O)COC(=O)C(O)(c1ccccc1)c1ccccc1	inactive: -8.33%	
C[C@H]1OP(=O)(Oc2ccccc2)C[C@@H]2O[C@@H]21 (stereo not given in full)	inactive: 0%	
C[C@@H]1C=CCP(=O)(Oc2ccccc2)O1 (stereo not given in full)	inactive: -28%	
CC(=O)Nc1ccc([As](=O)(O)O)c(O)c1	inactive: 13%	
CC(=O)Nc1ccc(Oc2c([N+](=O)[O-])cc([N+](=O)[O-])cc2[N+](=O)[O-])cc1	inactive: -20.3%	
O=P1(Nc2nc3ccc(Cl)cc3s2)COc2ccccc2O1 (stereo not given)	inactive: -4.72% [at 57.1 µM]	
CCOc1ccc(C2=NCC(CBr)S2)cc1 (stereo not given)	inactive: -17%	
CCc1cc(O)c([N+](=O)[O-])c(C)c1[N+](=O)[O-]	inactive: -23.3%	
CC(C)(C)C(=O)NC(Sc1ccccc1)C(Cl)(Cl)Cl (stereo not given)	inactive: 17.6%	
Nc1cc(N)c2nonc2c1[N+](=O)[O-]	inactive: -10.1%	
CC(C)CC(=O)NC(Sc1ccc(Cl)cc1)C(Cl)(Cl)Cl (stereo not given)	inactive: 26.7%	
Oc1ccccc1CNc1ccccn1	inactive: -1.79%	
O=C(NC(Sc1ccncn1)C(Cl)(Cl)Cl)c1ccccc1 (stereo not given)		active: 4.47 µM
NC(=O)c1cc([N+](=O)[O-])cc([N+](=O)[O-])c1N	inactive: -6.37%	
CN(C(=O)Cc1ccc(Cl)c(Cl)c1)[C@H]1CCCC[C@H]1N1CCCC1	inactive: -21.4%	
Cc1ccc(N/C(=N/P(=O)(N2CCOCC2)N2CCOCC2)N2CCOCC2)cc1	inactive: -16.3%	
COc1ccccc1OP(=O)(Nc1ccc(C)cn1)Oc1ccccc1OC	inactive: -4.47%	
Cc1ccc(OP(=O)(Nc2nccs2)Oc2ccc(C)cc2)cc1	inactive: -3.47%	
CN1CCCC(OC(=O)C(c2ccccc2)c2ccccc2)C1 (stereo not given)	inactive: -12.9%	
Clc1ccc(Cl)c(NC2=NCC(CBr)S2)c1 (stereo not given)	inactive: 7.9%	
CCN(N=Nc1nonc1N)c1nonc1N	inactive: -15%	
Nc1cccc2ccc([As](=O)(O)O)cc12	inactive: -9.86%	
CC(=O)Nc1ccc([As](=O)(O)O)cc1	inactive: 2.95%	
O=C(O)c1ccccc1[As](=O)(O)O	inactive: -1.41%	

SMILES	activity change, negative = inhibition	Potency
CCCC1OP(N)(=O)OCC1CC (stereo not given)	inactive: 2.76%	
O=P(Nc1nc2ccc(Cl)cc2s1)(c1ccccc1)c1ccccc1	inactive: -32.4%	
Cc1cc(SC(NC(=O)c2ccc(F)cc2)C(Cl)(Cl)Cl)ncn1 (stereo not given)		active: 5.62 µM
CCOP(=O)(Nc1ccccc1)OCC	inactive: -5.4%	
CN(C(=O)Cc1ccc(Cl)c(Cl)c1)[C@H]1CCCC[C@@H]1N1CCCC1	inactive: -18%	
Cc1ccc(NP(=O)(Oc2ccccc2F)Oc2ccccc2F)nc1	inactive: -4.83%	
CC(C)(C)C(=O)NC(Sc1ccncn1)C(Cl)(Cl)Cl (stereo not given)		active: 17.8 µM
O=[N+]([O-])c1ncn(CCn2ncnc2[N+](=O)[O-])n1	inactive: -20.4%	
COC(=O)C1(C)COP(=O)(Nc2ccccc2)OC1 (stereo not given)	inactive: -9.03%	
O=[N+]([O-])c1cccc(NC2=NCC(CBr)S2)c1 (stereo not given)	inactive: -15%	
O=C(O)CNc1ccc([As](=O)(O)O)cc1	inactive: -15.2%	
O=P1(N(CCCl)CCCl)OCCCS1 (stereo not given)	inactive: -17.2%	
O=P(/N=c1/nc(-c2ccccc2)n(-c2ccccc2)s1)(Nc1ccccc1)Nc1ccccc1	inactive: 10% [at 57.1 µM]	
O=C(Nc1cc([As](=O)(O)O)ccc1O)c1ccccc1	inactive: -10.1%	
Nc1ccc([As](=O)(O)c2ccc(N)cc2)cc1	inactive: 9.86%	
CCN(/C(=N/P(=O)(N1CCOCC1)N1CCOCC1)N1CCOCC1)c1ccc(OC)cc1	inactive: -6.4%	
CC(C)=N/N=C(\N)N[N+](=O)[O-]	inactive: -9.62%	
CN(C)C(=O)OCCc1n(C)cc[n+]1C	inactive: 4.96%	
CC1CCN(C(=O)Oc2c(Cl)cc(Cl)c3cccnc23)CC1	inactive: 0.362%	
COc1ccc(C2=NCC(CBr)S2)cc1 (stereo not given)	inactive: -35.8%	
CC(=O)N1C2C3N(C(C)=O)C1C1N(C(C)=O)C(C(N1C(C)=O)N3C(C)=O)N2C(C)=O	inactive: -6.52%	
O=[N+]([O-])c1cccc2n[nH]nc12	inactive: -15.2%	
Cc1ccc(NP(=O)(Oc2ccccc2)Oc2ccccc2)nc1	inactive: -11.6%	
CCc1nc2c(n1)c1c(non1O)c1c2no[n+]1[O-]	inactive: -9.03%	
CCOC(=O)c1ccc(NC(=O)C(C)(CCl)SC)cc1 (stereo not given)	inactive: -3.45%	
